Protein sequences, listed by entry. Tags and fused reporters are not part of them.
UniProt P14902, whole entry: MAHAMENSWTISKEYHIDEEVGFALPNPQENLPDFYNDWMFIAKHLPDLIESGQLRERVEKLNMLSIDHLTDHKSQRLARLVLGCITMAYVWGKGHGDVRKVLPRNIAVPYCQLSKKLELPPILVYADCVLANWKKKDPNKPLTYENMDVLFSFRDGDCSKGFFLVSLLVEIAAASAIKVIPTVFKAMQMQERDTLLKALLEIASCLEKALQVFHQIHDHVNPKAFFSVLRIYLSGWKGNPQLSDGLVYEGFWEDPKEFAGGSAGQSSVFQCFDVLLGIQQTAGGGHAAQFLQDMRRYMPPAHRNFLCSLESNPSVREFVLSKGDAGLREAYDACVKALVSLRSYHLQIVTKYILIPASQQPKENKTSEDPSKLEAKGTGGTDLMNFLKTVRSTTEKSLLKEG

According to patent publication US9758492B2, “IDO inhibitors” (Bristol-Myers Squibb Company, priority 2013, dated 2017):

Target: IDO (Homo sapiens, UniProt P14902)
Test: LLE_IDO_ABS_DR (IDO assay)
Conditions: read-out: LLE_IDO_ABS_DR (IC50)

IC50: 0.81 µM
SMILES: Cc1ccc(NC(=O)Nc2cc(-c3ccccc3C(=O)NS(=O)(=O)C3CC3)ccc2N(CC(C)C)CC(C)C)cc1
